Test results published in patent EP4831169A1, “NOVEL COMPOUND USED AS CBP/P300 INHIBITOR, AND PHARMACEUTICAL COMPOSITION FOR PREVENTING OR TREATING CANCER, INFLAMMATORY DISORDERS, OR AUTOIMMUNE DISEASES COMPRISING SAME AS ACTIVE INGREDIENT” (dated 2026).

Protein sequences, listed by entry. Tags and fused reporters are not part of them. Residues count along the entry.
UniProt Q92793, 1085-1192 limits assumed: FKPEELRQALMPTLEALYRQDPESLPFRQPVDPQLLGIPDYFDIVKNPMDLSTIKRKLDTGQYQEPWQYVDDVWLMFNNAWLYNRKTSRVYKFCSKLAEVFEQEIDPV

Columns and labels:
[1] = biological target: CBP BRD protein (Homo sapiens, UniProt Q92793); assay: CBP bromodomain TR-FRET inhibitory activity assay; conditions: read-out: CBP BRD IC50, Table 3
[2] = biological target: BRD4 (BD1) protein (Homo sapiens, UniProt O60885); assay: BRD4 bromodomain TR-FRET inhibitory activity assay; conditions: read-out: BRD4 (BD1) IC50, Table 4

SMILES: CN(C)c1cc2c(cc1-c1cnn(C)c1)nc(C(C)(C)C)n2-c1cc(N2CCOCC2)c2c(c1)n(C)c(=O)n2C
- IC50 [1]: < 500 nM
- IC50 [2]: 500 to 5000 nM

SMILES: Cn1cc(-c2cc3nc(-c4cncn4C)n(-c4cc(N5CCOCC5)c5c(c4)n(C)c(=O)n5C)c3cc2OC(F)F)cn1
- IC50 [1]: < 500 nM
- IC50 [2]: 500 to 5000 nM

SMILES: COC1(C)CN(c2cc(-n3c(C(C)(C)C)nc4cc(-c5cnn(C)c5)c(C(F)F)cc43)cc3c2n(C)c(=O)n3C)C1
- IC50 [1]: < 500 nM
- IC50 [2]: > 5000 nM

SMILES: Cn1cc(-c2cc3nc(-c4cncn4C)n(-c4cc(NCC5CCCCC5)c5c(c4)n(C)c(=O)n5C)c3cc2F)cn1
- IC50 [1]: < 500 nM
- IC50 [2]: > 5000 nM

SMILES: Cn1cncc1-c1nc2cc(-c3cnn(CC(F)(F)F)c3)c(F)cc2n1-c1cc(N2CCOCC2)c2c(c1)n(C)c(=O)n2C
- IC50 [1]: < 500 nM
- IC50 [2]: > 5000 nM

SMILES: Cn1cncc1-c1nc2cc(-c3ccc4c(c3)CC(=O)N4)c(F)cc2n1-c1cc(C2CCOCC2)c2c(c1)n(C)c(=O)n2C
- IC50 [1]: < 500 nM
- IC50 [2]: 500 to 5000 nM

SMILES: Cc1ncc(-c2cc3nc(C(C)(C)C)n(-c4cc(N5CCOCC5)c5c(c4)n(C)c(=O)n5C)c3cc2F)o1
- IC50 [1]: < 500 nM
- IC50 [2]: > 5000 nM

SMILES: COC(=O)c1cc2c(cc1-c1cnn(C)c1)nc(-c1c[nH]c3cc(C)ccc13)n2-c1ccc2c(c1)n(C)c(=O)n2C
- IC50 [1]: 500 to 5000 nM
- IC50 [2]: 500 to 5000 nM

SMILES: Cc1ncc(-c2cc3nc(C(C)(C)C)n(-c4cc(OC5COC5)c5c(c4)n(C)c(=O)n5C)c3cc2C(F)F)s1
- IC50 [1]: < 500 nM
- IC50 [2]: > 5000 nM

SMILES: Cn1cc(-c2cc3nc(C(C)(C)C)n(-c4cc(N5CCC(=O)CC5)c5c(c4)n(C)c(=O)n5C)c3cc2C(F)(F)F)cn1
- IC50 [1]: < 500 nM
- IC50 [2]: > 5000 nM

SMILES: COc1cc2c(cc1-c1cnc(C)s1)nc(C(C)(C)C)n2-c1cc(N2CCC(C)(O)CC2)c2c(c1)n(C)c(=O)n2C
- IC50 [1]: < 500 nM
- IC50 [2]: 500 to 5000 nM

SMILES: Cn1cc(-c2cc3nc(-c4cncn4C)n(-c4cc(N5CCOCC5)c5c(c4)n(C)c(=O)n5C)c3cc2Cl)cn1
- IC50 [1]: < 500 nM
- IC50 [2]: 500 to 5000 nM

SMILES: Cc1ccc2c(-c3nc4cc(-c5cnn(C)c5)ncc4n3-c3ccc4c(c3)n(C)c(=O)n4C)c[nH]c2c1
- IC50 [1]: 500 to 5000 nM
- IC50 [2]: > 5000 nM

SMILES: CC(C)c1cc(-n2c(C3(C)CC3)nc3cc(-c4cnn(C)c4)c(F)cc32)cc2c1n(C)c(=O)n2C
- IC50 [1]: 500 to 5000 nM
- IC50 [2]: > 5000 nM

SMILES: CC(=O)N1CCC(c2cc(-n3c(-c4cncn4C)nc4cc(-c5cnn(C)c5)c(F)cc43)cc3c2n(C)c(=O)n3C)CC1
- IC50 [1]: < 500 nM
- IC50 [2]: > 5000 nM

SMILES: Cn1cc(-c2cc3nc(-c4cncn4C)n(-c4cc(N5CC(F)(F)C5)c5c(c4)n(C)c(=O)n5C)c3cc2C#N)cn1
- IC50 [1]: < 500 nM
- IC50 [2]: > 5000 nM

SMILES: CC(C)c1cc(-n2c(-c3cncn3C)nc3cc(-c4cnn(C)c4)c(F)cc32)cc2c1n(C)c(=O)n2C
- IC50 [1]: < 500 nM
- IC50 [2]: > 5000 nM

SMILES: Cn1cc(-c2cc3nc(C(C)(C)C)n(-c4cc(OCC5CCC(=O)CC5)c5c(c4)n(C)c(=O)n5C)c3cc2F)cn1
- IC50 [1]: < 500 nM
- IC50 [2]: > 5000 nM

SMILES: Cn1cc(-c2cc3nc(C(C)(C)C)n(-c4cc(N5CCC5)c5c(c4)n(C)c(=O)n5C)c3cc2C#N)cn1
- IC50 [1]: < 500 nM
- IC50 [2]: > 5000 nM

SMILES: COC(C)(C)c1cc(-n2c(-c3cncn3C)nc3cc(-c4cnn(C)c4)c(F)cc32)cc2c1n(C)c(=O)n2C
- IC50 [1]: 500 to 5000 nM
- IC50 [2]: > 5000 nM

SMILES: Cn1cc(-c2cc3nc(-c4cncn4C)n(-c4cc(N5CCC(F)(F)C5)c5c(c4)n(C)c(=O)n5C)c3cc2F)cn1
- IC50 [1]: < 500 nM
- IC50 [2]: > 5000 nM

SMILES: Cc1ncc(-c2cc3nc(-c4cncn4C)n(-c4cc(NC(C)C)c5c(c4)n(C)c(=O)n5C)c3cc2F)s1
- IC50 [1]: < 500 nM
- IC50 [2]: > 5000 nM

SMILES: COc1cc2c(cc1-c1cnn(C)c1)nc(C(C)(C)C)n2-c1cc(N2CCC(C)(O)CC2)c2c(c1)n(C)c(=O)n2C
- IC50 [1]: < 500 nM
- IC50 [2]: 500 to 5000 nM
